## Binding of CDR-mutated scFvs to a peptide of the spike HR2 region

Binding partner: SARS-CoV-2 spike HR2 peptide, sequence PDVDLGDISGINAS.

The variants keep the light chain, the linker and the frameworks of Ab-14 (scFv order VH, a (GGGGS)3 linker, VL).
VH: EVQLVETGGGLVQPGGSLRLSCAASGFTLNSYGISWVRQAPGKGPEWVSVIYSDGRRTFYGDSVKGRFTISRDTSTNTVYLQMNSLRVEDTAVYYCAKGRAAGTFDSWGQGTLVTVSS
VL: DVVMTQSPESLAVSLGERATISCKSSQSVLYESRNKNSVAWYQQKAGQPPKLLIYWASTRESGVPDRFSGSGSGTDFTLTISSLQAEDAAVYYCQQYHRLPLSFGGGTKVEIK

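The starting antibody came from a phage panning campaign against this peptide. AAYL49 was designed without a model: most single CDR substitutions and a random sample of double and triple ones. In AlphaSeq, yeast of one mating type display the scFv and yeast of the other type display the target. Mating (16 h, 30 °C) was followed by selection of diploids and sequencing of their barcodes. Read counts were normalised to the haploid input and turned into Kd by a linear fit to BCL2-family pairs of known affinity, for each replicate. There are three technical replicates.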

Changes read parent residue, position, new residue, counted from the first residue of the VH shown. The Kd shown is the geometric mean over detected replicates; a lower Kd is a better binder. "not detected" marks a missing value. The strain was present, yet no cells mated with the target were sequenced in any replicate, which points to weak or no binding. Nonspecific signal, from three strains lacking the peptide, appeared in 15% of pairings of library AAYL49, centred on 11 µM (5% of these signals below 680 nM); values are not corrected for it. Also given: how often the same scFv was detected with the empty control strains.

apparent Kd | detected | signal with controls | changes
4.9 nM | 3/3 | 4/9 | S31Q+G61M+D106T
120 µM | 1/3 | 1/9 | T58V+S63Y
not detected | 0/3 | 0/9 | L29M+Y52A+S107R
32 µM | 2/3 | 5/9 | S53R+F59K+V64M
not detected | 0/3 | 0/9 | L29V+G55D+F105A
25 µM | 1/3 | 0/9 | N30W+S35W+S63C
26 µM | 2/3 | 4/9 | I34H+R100Q+D106C
730 nM | 1/3 | 1/9 | L29I+Y52M+S53G
not detected | 0/3 | 3/9 | Y32S+V50I+S63P
170 µM | 1/3 | 2/9 | I51D+Y60L+G103S
8.5 µM | 1/3 | 0/9 | N30E+D54A
not detected | 0/3 | 0/9 | S35R+G103D
230 µM | 1/3 | 0/9 | F27Y+D62S+F105N
not detected | 0/3 | 0/9 | G26L+S63M+R100I
430 nM | 1/3 | 2/9 | V50H+K65Y
not detected | 0/3 | 1/9 | S35P+T58P
25 µM | 2/3 | 7/9 | T58Y+S107W
1.2 µM | 1/3 | 0/9 | L29Q+I34S+G99S
3.4 µM | 1/3 | 0/9 | K65P+G99T+A101V
530 nM | 1/3 | 0/9 | N30P+S31F+Y60T
not detected | 0/3 | 0/9 | F27C+K65E+R100N
not detected | 0/3 | 0/9 | G55A+V64K+K65P
17 µM | 3/3 | 3/9 | S53F+F59M+T104C
1.5 µM | 3/3 | 0/9 | G26P+Y52S+F105S
not detected | 0/3 | 0/9 | V50P+T58R+F59N
not detected | 0/3 | 0/9 | G33F+I51C+A101K
not detected | 0/3 | 6/9 | G33P+R57V+F105Q
not detected | 0/3 | 0/9 | T28V+R57L+S63T
not detected | 0/3 | 0/9 | Y32D+I51A+V64T
14 µM | 1/3 | 1/9 | I34L+T58Y+A102E
9.1 µM | 1/3 | 1/9 | I34S+Y52G+G99I
750 nM | 3/3 | 0/9 | A102V+T104N+D106Q
24 µM | 2/3 | 1/9 | Y32T+G33I+Y60A
not detected | 0/3 | 1/9 | D62K+S63R+G99P
210 µM | 1/3 | 0/9 | T28P+S31N+I51D
not detected | 0/3 | 0/9 | N30A+Y60K+A102T
not detected | 0/3 | 0/9 | Y52I+R56W
63 µM | 2/3 | 2/9 | T28F+Y52S+A102M
3.1 µM | 1/3 | 0/9 | G26Y+D62A
520 µM | 1/3 | 2/9 | S31G+D54H+D106H
38 nM | 1/3 | 0/9 | S35R+S107L
not detected | 0/3 | 2/9 | L29Q+V64G
not detected | 0/3 | 0/9 | T28G+S63W+K65I
4.9 nM | 3/3 | 3/9 | L29Y+I34T
4.6 µM | 1/3 | 1/9 | T28H+G55A+R100A
19 µM | 1/3 | 2/9 | G26C+I51S+T104K
2.0 µM | 1/3 | 0/9 | L29A+R57T+S107V
120 µM | 1/3 | 1/9 | T28I+Y32L+I34N
5.9 nM | 3/3 | 1/9 | F27R+F59E+A101T
290 nM | 3/3 | 0/9 | S53P+G61C+K65A
not detected | 0/3 | 0/9 | R57I+K65Y+S107W
660 nM | 3/3 | 2/9 | S31W+D62N
25 µM | 3/3 | 2/9 | L29H+S53E
2.9 µM | 1/3 | 1/9 | L29W+Y52M+G103Y
not detected | 0/3 | 0/9 | L29D+V64F+F105R
660 µM | 1/3 | 4/9 | S35T+D54T+K65C
1.2 µM | 3/3 | 4/9 | D62T+K65L+A102V
6.7 µM | 2/3 | 6/9 | S53L+T58S+T104E
not detected | 0/3 | 4/9 | L29D+S53D+T104K
not detected | 0/3 | 2/9 | N30M+R57E+A102W
not detected | 0/3 | 0/9 | F27G+Y32H+V64L
3.8 µM | 1/3 | 0/9 | F27Y+G33E+Y52I
not detected | 0/3 | 0/9 | Y60F+T104K
not detected | 0/3 | 0/9 | G26I+G103S
not detected | 0/3 | 0/9 | D54T+G99K+F105I
not detected | 0/3 | 0/9 | S31P+T58C+G61T
60 nM | 3/3 | 0/9 | V50I+T104H
640 µM | 1/3 | 1/9 | S35C+Y52E
not detected | 0/3 | 2/9 | G26D+T58K+G99Q
not detected | 0/3 | 0/9 | S53H+T58S+F105L
not detected | 0/3 | 0/9 | T28N+N30V+I34W
19 nM | 3/3 | 6/9 | R56E+R100F
27 µM | 2/3 | 1/9 | I51Y+R56I

Picked from the list: the 7 lowest averages where every replicate gave a value.

changes | apparent Kd | detected | signal with controls
L29Y+I34T | 4.9 nM | 3/3 | 3/9
S31Q+G61M+D106T | 4.9 nM | 3/3 | 4/9
F27R+F59E+A101T | 5.9 nM | 3/3 | 1/9
R56E+R100F | 19 nM | 3/3 | 6/9
V50I+T104H | 60 nM | 3/3 | 0/9
S53P+G61C+K65A | 290 nM | 3/3 | 0/9
S31W+D62N | 660 nM | 3/3 | 2/9

In this assay the parent's reference entry averaged 4.4 nM; its copy inside this library read 13 µM (one replicate of three).

The measurements come from Engelhart et al. 2022 (doi:10.1038/s41597-022-01779-4) through the FLAb antibody collection.